Test results as given in PubChem BioAssay AID485314 (National Center for Advancing Translational Sciences (NCATS), 2010).
The list shows a part of the results, in another mix than the full data. Results filed as inconclusive are left out. Some salts or complexes appear as unconnected parts, following the source record. Active and inactive are the calls of the source. Calls follow the shape of the dose curve; as a rule, active = well fitted inhibition curve with a large enough effect; inconclusive = small, poorly fitted or top-dose-only effect, or another doubt; inactive = no such curve, though single readings can be large or run the other way.

Target: DNA polymerase beta (Homo sapiens) (UniProt P06746)
Test: qHTS Assay for Inhibitors of DNA Polymerase Beta
Conditions: Pol beta primer extension/strand displacement, fluorescence kinetic; at 114 µM (top of the series)
Description: The base excision repair system in human cells is a target for therapeutic modulation of the response to irradiation treatment and DNA-damaging drugs. A key enzyme in this system is the bi-functional DNA polymerase known as DNA polymerase Beta (Pol Beta). The following is a homogeneous kinetic assay to study the primer extension and strand-displacement reaction catalyzed by pol beta.
A stepwise description of the 1536-well assay is shown in next Table. Three microliters of reagents (buffer in column 3 and 4 as negative control and 10 nM Pol beta in columns 1, 2, and 5-48) was dispensed into 1,536-well black solid-bottomed plate. Compounds (23 nL) were transferred via Kalypsys pin tool equipped with 1536-pin array (10 nL slotted pins, V&P Scientific, San Diego, CA). The plates were incubated for 15 min at room temperature, and 1 uL substrate (50 nM final concentration) were added to start the reaction and immediately read at 0 min read on Viewlux reader. The plate were further incubated for 10 min at room temperature, and then read on Viewlux again. Throughout the screen, reagent bottle and all liquid lines were chilled and made light-tight to minimize reagent degradation. All screening operations were performed on a fully integrated robotic system (Kalypsys, San Diego, CA) containing one RX-130 and two RX-90 anthropomorphic robotic arms (Staubli, Duncan, SC). Library plates were screened starting from the lowest and proceeding to the highest concentration, and a double-dipping step of the highest concentration was required to access higher concentrations of compounds. Vehicle-only plates, with DMSO being pin-transferred to the entire column 5-48 compound area, were inserted uniformly at the beginning and the end of each library in order to monitor for and record any shifts in the background, which can be affected by reagent dispensers or loss in enzyme activity overtime. Screening data were corrected, normalized, and concentration-effect relationships were derived by using publicly-available curve fitting algorithms developed in-house (http://ncgc.nih.gov/pub/openhts). A four parameter Hill equation was fitted to the concentration-response data by minimizing the residual error between the modeled and observed responses.
% is scaled to controls: 0 for no effect and ±100 for the full control effect.

Structure (SMILES) | activity change, negative = inhibition
c1ccc(CN2CCC(Nc3ccccc3)CC2)cc1 | inactive: 2.76%
O=C(NCC1(N2CCOCC2)CCCCC1)c1ccccc1 | inactive: -5.3%
CCCN1CCC(Nc2cc(OC)cc(OC)c2)CC1 | inactive: 16.2%
CN(C)C1(CNC(=O)c2cccc(C#N)c2)CCCCC1 | inactive: 8.69%
CCOC(=O)C(CC)C1=NC(C)(C)Cc2ccccc21.O=[N+]([O-])c1cc([N+](=O)[O-])c(O)c([N+](=O)[O-])c1 (stereo unspecified) | inactive: 1.51%
O=C(NCC1(N2CCOCC2)CCCCC1)c1ccc([N+](=O)[O-])cc1 | inactive: 1.71%
CC(C)(C)OC(=O)N1CCC(N(C(=O)c2ccccc2)c2ccc(Cl)cc2)CC1 | inactive: -16.5%
O=C(NCC1(N2CCOCC2)CCCCC1)c1ccccc1[N+](=O)[O-] | inactive: -16.6%
N#Cc1ccc(C(=O)NCC2(N3CCCCC3)CCCCC2)cc1 | inactive: 37.7%
O=C(O)c1cccc(Nc2c([N+](=O)[O-])cc([N+](=O)[O-])cc2[N+](=O)[O-])c1 | inactive: 11.9%
N/C(=N\O)c1c(N)no[n+]1[O-] | inactive: 12.6%
CCOC(=O)N1CCC(Nc2ccc(C)cc2)CC1 | inactive: -3.81%
COc1ccc(C(=O)NCC2(N3CCOCC3)CCCCC2)cc1OC | inactive: 0.365%
CCCOc1ccc(C)cc1CN(CCCl)CCCl | inactive: 43.4%
CCC(CO)(C(=O)OC1CN2CCC1CC2)c1ccccc1 (stereo unspecified) | inactive: -1.2%
COc1cccc(C(=O)N(c2cc(C)cc(C)c2)C2CCN(C(=O)OC(C)(C)C)CC2)c1 | inactive: 28.1%
COc1cc(OC)cc(C(=O)NCC2(N3CCOCC3)CCCCC2)c1 | inactive: 5.92%
COc1cc(C(=O)NCC2(N3CCOCC3)CCCCC2)cc(OC)c1OC | inactive: -0.103%
CCCOc1ccc(C(=O)NCC2(N(C)C)CCCCC2)cc1 | inactive: -7.81%
CC(C)(C)OC(=O)N1CCC(Nc2ccccc2)CC1 | inactive: 28.5%
O=C(O)C1(Nc2ccccc2)CCN(Cc2ccccc2)CC1 | inactive: 2.03%
CCOc1ncccc1C(=O)NCC1(N2CCOCC2)CCCCC1 | inactive: -0.534%
CN1CCC(Nc2ccc(F)c(Cl)c2)CC1 | inactive: 8.51%
CC(C)(C)c1ccc(C(=O)NCC2(N3CCOCC3)CCCCC2)cc1 | inactive: -0.875%

Structure (SMILES) | activity change, negative = inhibition
CN(C)c1ccc(C(=O)NCC2(N3CCCCC3)CCCCC2)cc1 | inactive: 3.38%
Cc1ccccc1C(=O)NCC1(N(C)C)CCCCC1 | inactive: 2.41%
CCN1CCC(Nc2cccc(F)c2)CC1 | inactive: 5.59%
Fc1ccccc1NC1CCN(Cc2ccccc2)CC1 | inactive: 6.01%
COc1cc(OC)cc(C(=O)NCC2(N3CCCCC3)CCCCC2)c1 | inactive: 4.17%
CN(C)C1(CNC(=O)c2ccc(C(C)(C)C)cc2)CCCCC1 | inactive: -1.91%
COc1cc(C(=O)NCC2(N(C)C)CCCCC2)ccc1OC(F)F | inactive: 0.523%
CCOC(=O)N1CCC(Nc2cccc(C)c2)CC1 | inactive: -7.39%
Cc1ccc(OCC(C)C)c(CN(CCCl)CCCl)c1 | inactive: -14%
O=C(NCC1(N2CCCCC2)CCCCC1)c1ccc(F)cc1 | inactive: 43.8%
CCOC(=O)N1CCC(Nc2ccc(F)cc2)CC1 | inactive: 10.9%
COc1ccc(NC2CCN(CCc3ccccc3)CC2)c(OC)c1 | inactive: 24.7%
COc1ccccc1C(=O)NCC1(N2CCOCC2)CCCCC1 | inactive: -11.7%
CCOc1ccc(C)cc1CN(CCCl)CCCl | inactive: 33.9%
O=C(NCC1(N2CCOCC2)CCCCC1)c1ccc(Cl)cc1 | inactive: 4.7%
CCOC(=O)N1CCC(Nc2ccc(OC)cc2)CC1 | inactive: 23.3%
O=C(OC1CN2CCC1CC2)C1c2ccccc2Oc2ccccc21 (stereo unspecified) | inactive: 6.36%
N#CC1(Nc2ccccc2)CCN(Cc2ccccc2)CC1 | inactive: 2.84%
O=C(NCC1(N2CCOCC2)CCCCC1)c1cc2ccccc2o1 | inactive: -0.864%
Cc1cc(C)cc(N(C(=O)c2ccccc2)C2CCN(C(=O)OC(C)(C)C)CC2)c1 | inactive: 0.473%
CSc1ccccc1C(=O)NCC1(N2CCCCC2)CCCCC1 | inactive: -0.601%
O=C(NCC1(N2CCCCC2)CCCCC1)c1ccc(=O)[nH]c1 | inactive: 5.96%
COc1ccc(C(=O)NCC2(N3CCCCC3)CCCCC2)cc1 | inactive: -2.57%
CC(C)(C)OC(=O)N1CCC(N(C(=O)c2ccccc2)c2ccc(F)cc2)CC1 | inactive: 1.27%

Structure (SMILES) | activity change, negative = inhibition
COc1ccc(C(=O)NCC2(N3CCCCC3)CCCCC2)c(OC)c1OC | inactive: 2.97%
CCCCOc1ccccc1C(=O)NCC1(N2CCOCC2)CCCCC1 | inactive: 5.11%
CCCOc1ccc(C(=O)NCC2(N(C)C)CCCCC2)cc1OC | inactive: 13.7%
O=C(NCC1(N2CCOCC2)CCCCC1)c1ccccc1Br | inactive: 15.9%
COc1ccc2c(c1O)-c1c(O)c(OC)cc3c1[C@H](C2)[N+](C)(C)CC3.O=[N+]([O-])c1cc([N+](=O)[O-])c([O-])c([N+](=O)[O-])c1[O-] | inactive: -1%
O=C(OC1CN2CCC1CC2)c1ccc([N+](=O)[O-])cc1 (stereo unspecified) | inactive: 3.69%
COc1cc(OC)c(C(=O)NCC2(N(C)C)CCCCC2)cc1OC | inactive: 17.6%
COc1ccc(CN(CCCl)CCCl)cc1Cl | inactive: -0.454%
CN(C)c1cccc(C(=O)NCC2(N3CCCCC3)CCCCC2)c1 | inactive: -5.93%
O=[N+]([O-])c1cc([N+](=O)[O-])c(OC2CCCCC2O)c([N+](=O)[O-])c1 (stereo unspecified) | inactive: 1.79%
CC(C)c1ccc(NC2CCN(C(=O)OC(C)(C)C)CC2)cc1 | inactive: 1.56%
COc1ccc(NC2CCN(C(=O)OC(C)(C)C)CC2)cc1 | inactive: 0.487%
CN1CCN(CCOC(=O)C(O)(c2ccccc2)c2ccccc2)CC1 | inactive: 25.6%
O=C(NCC1(N2CCOCC2)CCCCC1)c1cc(=O)[nH]c2ccccc12 | inactive: 8.24%
COc1cc(C(=O)NCC2(N3CCCCC3)CCCCC2)ccc1OC(F)F | inactive: 91.4%
O=C(NCC1(N2CCCCC2)CCCCC1)c1cccc(C(F)(F)F)c1 | inactive: 18.8%
CCCOc1cccc(C(=O)NCC2(N3CCOCC3)CCCCC2)c1 | inactive: 25.2%
O=[N+]([O-])c1cc([N+](=O)[O-])c(NCC2CCS(=O)(=O)C2)c([N+](=O)[O-])c1 (stereo unspecified) | inactive: -10.1%
O=C(NCC1(N2CCCCC2)CCCCC1)c1cccc([N+](=O)[O-])c1 | inactive: 76.3%
CCOc1ccc(C(=O)NCC2(N3CCOCC3)CCCCC2)cc1 | inactive: 1.66%
CCN1CCC(Nc2ccc(Cl)cc2)CC1 | inactive: -0.232%
N#CC1(Nc2ccccc2)CCN(CCc2ccccc2)CC1 | inactive: -1.85%
O=C(NCC1(N2CCCCC2)CCCCC1)c1ccc(OC(F)F)cc1 | inactive: 22.8%
